Consider one substance from patent US20110003847A1, “Prasugrel Salts with Improved Properties” (HELM AG, priority 2008, published 2011).

The nature of data set [1]: Corrosiveness of the salts. It is filed as physicochemical.
Data set [2] is described as follows: Storage of prasugrel-coated lactose in an open container (colour). The settings on record: after 14 days of storage in an open container. It is filed as physicochemical.

For Prasugrel-Besylate [prasugrel besylate], the corrosiveness result in data set [1] is recorded as “not corrosive”. Besides, the “colour of salt-coated lactose on storage” value in data set [2] is “remained white”.
